According to patent US20260382619A1:

What was measured:
[1] = tested on: monkey kidney cells (Vero cell line); assay: cytotoxicity (CDV example); conditions: read-out: cytotoxicity CC50; CDV example (Table 6)
[2] = tested on: monkey kidney cells (Vero cell line); assay: cytotoxicity (CAV example); conditions: read-out: cytotoxicity CC50; CAV example (Table 5)
Mx1 = conditions: PAM cell line, 12 hours
[3] = tested on: feline fetal cells (FCWF-4 cell line); assay: cytotoxicity (FIPV example); conditions: read-out: cytotoxicity CC50; FIPV example (Table 9)
[4] = tested on: feline kidney cells (CRFK cell line); assay: cytotoxicity (FPV example); conditions: read-out: cytotoxicity CC50; FPV example (Table 7)
ISG15 = conditions: PAM cell line, 12 hours
[5] = tested on: feline kidney cells (CRFK cell line); assay: cytotoxicity (FCV example); conditions: read-out: cytotoxicity CC50; FCV example (Table 8)
[6] = tested on: canine kidney cells (MDCK cell line); assay: cytotoxicity (LPAIV example); conditions: read-out: cytotoxicity CC50; LPAIV example (Table 3)
[7] = tested on: canine fibroblasts (A-72 cell line); assay: cytotoxicity (CCoV example); conditions: read-out: cytotoxicity CC50; CCoV example (Table 4)
RNaseL = conditions: PAM cell line, 12 hours

Nc1nc2c(ncn2[C@@H](CO)OC(CO)CO)c(=O)[nH]1
CC50 [1]: > 10 mM | CC50 [2]: > 10 mM | Mx1 expression value (2^−ΔΔCt), Fold change (multiple increase compared to control group) (Mx1; 4000 uM): 4.0 (±1.2) Fold change | CC50 [3]: > 10 mM | CC50 [4]: > 10 mM | ISG15 expression value (2^−ΔΔCt), Fold change (multiple increase compared to control group) (ISG15; 4000 uM): 4.2 (±1.5) Fold change | CC50 [5]: > 10 mM | CC50 [6]: > 10 mM | CC50 [7]: > 10 mM | RNaseL expression value (2^−ΔΔCt), Fold change (multiple increase compared to control group) (RNaseL; 4000 uM): 3.0 (±0.8) Fold change

Nc1nc2c(ncn2[C@@H](C=O)O[C@@H](C=O)CO)c(=O)[nH]1
CC50 [1]: > 6 mM | CC50 [2]: > 6 mM | Mx1 expression value (2^−ΔΔCt), Fold change (multiple increase compared to control group) (Mx1; 400 uM): 3.5 (±0.7) Fold change | CC50 [3]: > 6 mM | CC50 [4]: > 6 mM | ISG15 expression value (2^−ΔΔCt), Fold change (multiple increase compared to control group) (ISG15; 400 uM): 4.7 (±0.3) Fold change | CC50 [5]: > 6 mM | CC50 [6]: > 6 mM | CC50 [7]: > 6 mM | RNaseL expression value (2^−ΔΔCt), Fold change (multiple increase compared to control group) (RNaseL; 400 uM): 2.5 (±0.1) Fold change

O=c1[nH]c(=O)c2ncn([C@@H](CO)OC(CO)CO)c2[nH]1
CC50 [1]: > 10 mM | CC50 [2]: > 10 mM | Mx1 expression value (2^−ΔΔCt), Fold change (multiple increase compared to control group) (Mx1; 4000 uM): 2.7 (±1.4) Fold change | CC50 [3]: > 10 mM | CC50 [4]: > 10 mM | ISG15 expression value (2^−ΔΔCt), Fold change (multiple increase compared to control group) (ISG15; 4000 uM): 4.7 (±1.3) Fold change | CC50 [5]: > 10 mM | CC50 [6]: > 10 mM | CC50 [7]: > 10 mM | RNaseL expression value (2^−ΔΔCt), Fold change (multiple increase compared to control group) (RNaseL; 4000 uM): 1.7 (±0.3) Fold change

O=c1[nH]cnc2c1ncn2[C@@H](CO)OC(CO)CO
CC50 [1]: > 10 mM | CC50 [2]: > 10 mM | Mx1 expression value (2^−ΔΔCt), Fold change (multiple increase compared to control group) (Mx1; 4000 uM): 2.8 (±0.9) Fold change | CC50 [3]: > 10 mM | CC50 [4]: > 10 mM | ISG15 expression value (2^−ΔΔCt), Fold change (multiple increase compared to control group) (ISG15; 4000 uM): 6.3 (±0.4) Fold change | CC50 [5]: > 10 mM | CC50 [6]: > 10 mM | CC50 [7]: > 10 mM | RNaseL expression value (2^−ΔΔCt), Fold change (multiple increase compared to control group) (RNaseL; 4000 uM): 2.0 (±0.3) Fold change

O=C[C@@H](CO)O[C@H](C=O)n1cnc2c(=O)[nH]c(=O)[nH]c21
CC50 [1]: > 10 mM | CC50 [2]: > 10 mM | Mx1 expression value (2^−ΔΔCt), Fold change (multiple increase compared to control group) (Mx1; 400 uM): 3.5 (±1.0) Fold change | CC50 [3]: > 10 mM | CC50 [4]: > 8 mM | ISG15 expression value (2^−ΔΔCt), Fold change (multiple increase compared to control group) (ISG15; 400 uM): 4.5 (±0.4) Fold change | CC50 [5]: > 8 mM | CC50 [6]: > 10 mM | CC50 [7]: > 10 mM | RNaseL expression value (2^−ΔΔCt), Fold change (multiple increase compared to control group) (RNaseL; 400 uM): 3.4 (±0.2) Fold change

O=C[C@@H](CO)O[C@H](C=O)n1cnc2c(=O)[nH]cnc21
CC50 [1]: > 10 mM | CC50 [2]: > 10 mM | Mx1 expression value (2^−ΔΔCt), Fold change (multiple increase compared to control group) (Mx1; 400 uM): 3.5 (±1.1) Fold change | CC50 [3]: > 10 mM | CC50 [4]: > 10 mM | ISG15 expression value (2^−ΔΔCt), Fold change (multiple increase compared to control group) (ISG15; 400 uM): 4.0 (±0.6) Fold change | CC50 [5]: > 10 mM | CC50 [6]: > 10 mM | CC50 [7]: > 10 mM | RNaseL expression value (2^−ΔΔCt), Fold change (multiple increase compared to control group) (RNaseL; 400 uM): 3.0 (±0.2) Fold change

Where two headings read alike, the source gives them in different places.
